For 1 substance, pKa results are on record in patent US4954483A, “Carboxylic acid ester derivatives or deglucoteicoplanin” (Gruppo Lepetit, S.p.A., priority 1984, dated 1990).

The nature of this data set: Potentiometric titration in methylcellosolve/water 4:1 (pKa, pH1/2). The settings on record: methylcellosolve/water 4:1 (v/v), excess 0.01 M HCl, titrated with 0.01 M NaOH. In kind it is physicochemical. As to the method: ^(c) the samples are dissolved in methylcellosolve ®/water 4:1
(v/v), an excess of 0.01 M hydrogen chloride in the same mixture is added
thereto and the resulting solution is titrated with 0.01 M NaOH in the […]

One may read the pKa as the pH at which an ionisable group is half protonated. Read a high pKa as a weaker acid or stronger base. Take “Deglucoteicoplanin pivaloyloxymethyl ester [Example 6]”: the pKa was found to be 6.52.
